In PubChem BioAssay AID1656 (Sanford-Burnham Center for Chemical Genomics, 2009):
Values joined by “and” are separate entries in the source; they are usually repeats but may differ in a detail not shown here. Equal values may be shown once. Only a part is listed here, and it is no random draw. Some salts or complexes appear as unconnected parts, following the source record. Active and inactive are the calls of the source.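 The calls were made as follows: active = lipid droplet intensity inhibited by at least 50%, with more than 500 cells counted; inconclusive = wells with under 300 cells, treated as cytotoxic; inactive = the rest.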

Test: inhibitors of hepatocyte lipid droplet formation, primary screen, imaging, high-throughput imaging, BODIPY stain (AID 1656)
Details: AML12 mouse hepatocytes, oleate lipid droplets, at 6.5 µM, active compounds read high

SMILES | inhibition
O=[As](O)(c1ccccc1)c1ccc(O)cc1 | inactive: -18.2%
Cc1cc(-c2cccc3ccccc23)c(C)cn1.O=[N+]([O-])c1cc([N+](=O)[O-])c(O)c([N+](=O)[O-])c1 | inactive: -3.2%
O=[N+]([O-])c1cc([N+](=O)[O-])c(NCC2CCS(=O)(=O)C2)c([N+](=O)[O-])c1 (configuration not stated) | inactive: -22.4%
O=[N+]([O-])c1ccc(O)c(/C=N/Nc2ccc([N+](=O)[O-])cc2[N+](=O)[O-])c1 | inactive: -0.7%
O=[N+]([O-])c1ccc(OP2(=O)COCCO2)cc1 (configuration not stated) | inactive: 20.8%
CC(=O)NC(SC(=S)N(C)C)C(Cl)(Cl)Cl (configuration not stated) | inactive: -1.6%
O=[N+]([O-])c1ncn(CCn2cnc([N+](=O)[O-])n2)n1 | inactive: -3.2%
O=C(OC1CN2CCC1CC2)c1cccc(Cl)c1 (configuration not stated) | inactive: 4.7%
C(Cc1nn[nH]n1)Cc1nn[nH]n1 | inactive: 8.1%
Nc1ccc([As](=O)(O)c2ccc([N+](=O)[O-])cc2)cc1 | inactive: -3.1%
O=P(Nc1ccccn1)(c1ccc(Br)cc1)c1ccc(Br)cc1 | inactive: -0.9%
CN(C)C1(CNC(=O)c2ccc(Cl)c(S(N)(=O)=O)c2)CCCCC1 | inactive: 9.8%
COc1ccc(NP(C)(=O)Oc2ccccc2OC)cc1 (configuration not stated) | inactive: -14.8%
CN(C)CCOC(=O)C(O)(c1ccccc1)C1CCCCC1 (configuration not stated) | inactive: -13.7%
O=P(Nc1nc2ccccc2s1)(c1ccccc1)c1ccccc1 | inactive: -3.3%
C[C@H]1OP(=O)(Oc2ccccc2)[C@H](O)[C@H](O)[C@H]1N=[N+]=[N-] (some centres not stated) | inactive: -0.7%
CP(=O)(Nc1ccc2c(c1)OCCO2)Oc1ccccc1 (configuration not stated) | inactive: 2.4%
Cc1ccccc1NP(C)(=O)Nc1ccccc1C | inactive: -0.3%
CC(C)C(=O)NC(Sc1ccccc1)C(Cl)(Cl)Cl (configuration not stated) | inactive: -42.9%
O=P(Nc1nccs1)(c1ccccc1)c1ccccc1 | inactive: 15.2%
CP(=O)(Nc1ccc(SC(F)(F)F)cc1)Oc1ccc(F)cc1 (configuration not stated) | inactive: -32%

SMILES | inhibition
c1nnnn1CCn1cnnn1 | inactive: 8.8%
CCOP(C)(=S)SCC(=O)NC(C)(CC)C(=O)O (configuration not stated) | inactive: 21.7%
O=C(OCCN1CCN(CCOCc2ccccc2)CC1)C(O)(c1ccccc1)c1ccccc1 | inactive: -4.5%
C[C@H]1OP(=O)(Oc2ccccc2)C[C@@H]2O[C@@H]21 (some centres not stated) | inactive: -17.4%
C[C@@H]1C=CCP(=O)(Oc2ccccc2)O1 (some centres not stated) | inactive: -11.7%
O=C(OC1CN2CCC1CC2)c1ccc([N+](=O)[O-])cc1 (configuration not stated) | inactive: -51.8%
CC(=O)Nc1ccc([As](=O)(O)O)c(O)c1 | inactive: -3.5%
COc1ccc2c(c1O)-c1c(O)c(OC)cc3c1[C@H](C2)[N+](C)(C)CC3.O=[N+]([O-])c1cc([N+](=O)[O-])c([O-])c([N+](=O)[O-])c1[O-] | inactive: -31%
CC(=O)Nc1ccc(Oc2c([N+](=O)[O-])cc([N+](=O)[O-])cc2[N+](=O)[O-])cc1 | inactive: 5.6%
O=P1(Nc2nc3ccc(Cl)cc3s2)COc2ccccc2O1 (configuration not stated) | inactive: -10%
CCOc1ccc(C2=NCC(CBr)S2)cc1 (configuration not stated) | inactive: -3.4%
CC(C)(C)C(=O)NC(Sc1ccccc1)C(Cl)(Cl)Cl (configuration not stated) | inactive: -5.3%
CC(C)c1ccc(OP(C)(=O)Nc2ccc(SC(F)(F)F)cc2)cc1 (configuration not stated) | inactive: 13.8%
CCN(CC)CCCOC(=O)C(O)(c1ccccc1)C1CCCCC1 (configuration not stated) | inactive: -11.1%
CC(=O)NC(SC(=S)N(CC(C)C)CC(C)C)C(Cl)(Cl)Cl (configuration not stated) | inactive: 4.1%
Cc1ccc(OP(=O)(Nc2ccccn2)Oc2ccc(C)cc2)cc1 | inactive: 2.5%
Cc1ccccc1OP(=O)(Nc1ccccn1)Oc1ccccc1C | inactive: -13.1%
O=[N+]([O-])c1cc([N+](=O)[O-])c(OC2CCCCC2O)c([N+](=O)[O-])c1 (configuration not stated) | inactive: 5.4%
O=c1c2cc([N+](=O)[O-])ccc2[nH]c2c([N+](=O)[O-])cc([N+](=O)[O-])cc12 | inactive: -14.5%
CCCCCOc1ccc(NP(C)(=O)Oc2ccc(Cl)cc2Cl)cc1 (configuration not stated) | inactive: -9.4%
CN(C)C(=O)Oc1noc2ccccc12 | inactive: 15.7%

SMILES | inhibition
c1ccc(-c2nn[nH]n2)c(-c2nn[nH]n2)c1 | inactive: -7.4%
Cc1ccc(NP(=O)(Oc2cccc(C)c2)Oc2cccc(C)c2)nc1 | inactive: -1.6%
CCNC(=S)/N=C(\N)N[N+](=O)[O-] | inactive: -25.4%
O=C(NC1CCS(=O)(=O)C1)NP(=S)(Oc1ccccc1)Oc1ccccc1 (configuration not stated) | inactive: 9.4%
COc1ccc(OP(C)(=O)Nc2ccc(SC(F)(F)F)cc2)cc1 (configuration not stated) | inactive: -18.2%
CCOC(=O)c1ccc(NP(C)(=O)Oc2ccc(F)cc2)cc1 (configuration not stated) | inactive: 16.5%
O=[N+]([O-])c1cc([N+](=O)[O-])c(CCN2CCOCC2)c([N+](=O)[O-])c1 | inactive: -8.8%
Nc1cccc2ccc([As](=O)(O)O)cc12 | inactive: 2.4%
CP(=O)(Nc1ccc(Cl)cc1Cl)Oc1ccccc1 (configuration not stated) | inactive: -2.8%
CP(=O)(OCCOc1ccccc1)OCCOc1ccccc1 | inactive: 3.6%
CCN(N=Nc1nonc1N)c1nonc1N | inactive: 21.2%
O=P(Nc1nc2ccc(Cl)cc2s1)(c1ccccc1)c1ccccc1 | inactive: 0.9%
Cc1cc(C)cc(OP(C)(=O)Nc2cccc(C(F)(F)F)c2)c1 (configuration not stated) | inactive: -1.2%
CC(=O)Nc1ccc([As](=O)(O)O)cc1 | inactive: 0.9%
O=C(O)c1ccccc1[As](=O)(O)O | inactive: 10.8%
COc1ccc(OP(C)(=O)Nc2ccccc2Br)cc1 (configuration not stated) | inactive: -37.2%
Cc1cc(SC(NC(=O)c2ccc(F)cc2)C(Cl)(Cl)Cl)ncn1 (configuration not stated) | inactive: 2%
CCOP(=O)(Nc1ccccc1)OCC | inactive: -0.3% and inactive: -14.8%
Cc1ccc(NP(=O)(Oc2ccccc2F)Oc2ccccc2F)nc1 | inactive: 1.2%
Oc1ccccc1CNc1ccccn1 | inactive: 2.7%
